In publication PMC7029632, “Routing Nanomolar Protein Cargoes to Lipid Raft‐Mediated/Caveolar Endocytosis through a Ganglioside GM1‐Specific Recognition Tag” (Advanced Science, 2020):

System: HeLa cells
Assay: Cytotoxicity by bioimpedance measurement
Set-up: species or system human

Compound: NCCCC[C@H](NC(=O)[C@H](Cc1ccc(O)cc1)NC(=O)[C@@H](N)Cc1c[nH]c2ccccc12)C(=O)N[C@@H](Cc1ccc(O)cc1)C(=O)N[C@@H](Cc1c[nH]c2ccccc12)C(N)=O [WYKYW]
- signs of cytotoxicity during the cell-based experiments: no signs of cytotoxicity
